Source: PubChem BioAssay (Broad Institute)
Rows were chosen to be rich in hits. Some 2.8% of all compounds tested hit in one or more screens of this group.
miR-122 sensor = blocks miR-122 activity in Huh7 sensor cells; Huh7 miR-122 Renilla luciferase sensor, 48 h; neutral wells = 0, positive control = 100; activation (reporter increase), % at 12.5 µM; 0.3% of 340,000 active;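 active = mean replicate activation score at least 90 and every replicate individually at or above 90; inconclusive = only one of the two criteria met; inactive = neither criterion met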;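 note: higher luciferase means less miR-122 activity so hits act as miR-122 inhibitors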
MITF act = increases MITF-driven TRPM1 promoter luciferase signal | SK-MEL-5 TRPM1-promoter luciferase, 24 h; % of positive control, neutral wells = 0 | activation, % at 12.5 µM | 0.75% of 300,000 active | AID 588334;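 active = mean activation of at least 80% with every replicate also reaching 80%; inconclusive = mean reaches 80% but some replicate falls short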;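 note: 0% = neutral control wells and 100% = parthenolide positive control wells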
Yeast UUG start = modulators of yeast start codon fidelity, primary screen, whole organism, S. cerevisiae, single point, plate reader; S. cerevisiae UUG-firefly luciferase reporter, luminescence/redox ratio; activity score, % at 18.7 µM; actives 0.13% (n = 350,000); AID 602363, 2012;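 active = replicate mean at a twofold rise or more, about +100% in these data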;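 also: firefly luciferase made from a UUG start codon reports start codon fidelity; reporter light over untreated wells divided by growth signal over untreated wells; some hits fall short of that in this replicate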
Wnt bcat act = activates Wnt/beta-catenin signaling in a reporter cell assay. activator, plate reader. activation, % at 9.35 µM. 1.2% of 300,000 active. AID 743398; in the data active = activation above about 30%, passing the limit was not always enough; inconclusive = no clear call, values can overlap the other calls;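 note: 0% = neutral control wells and 100% = positive control wells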
esBAF inh = inhibitors of esBAF chromatin remodeling in mouse ES cells; Bmi1-luciferase knock-in reporter, 24 h; 100% = twice the neutral-well signal; reporter increase, % at 12.5 µM; 2% of 350,000 active; AID 602393; in the data active = activation above about 40%; inconclusive = no clear call, values can overlap the other calls;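 note: 0% = median of the plate's neutral control wells and 100% = double that signal; a rise in the Bmi1 reporter signal indicates esBAF inhibition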
PglD DTNB = inhibitors of Campylobacter jejuni PglD acetyltransferase | purified PglD enzyme, DTNB colorimetric CoA detection | 0.098% of 360,000 active | inhibition, % at 12.5 µM; in the data active = inhibition above about 16%, passing the limit was not always enough; inconclusive = no clear call, values can overlap the other calls
Active calls of the source: *; ? = inconclusive; . = no result; [ ] = dose if it differs, or a comment.

SMILES	miR-122 sensor	MITF act	Yeast UUG start	Wnt bcat act	esBAF inh	PglD DTNB
O=C(CCCc1cccs1)Nc1nc2c(s1)CCCC2	-1	.	-9	.	53*	1
COC(=O)C1=C(N)Oc2c(oc(CO)cc2=O)C1c1ccc(F)cc1 (stereo not drawn)	-9	.	-18	40*	.	-5
COc1cc(C2C(C#N)=C(N)Oc3c2oc(CO)cc3=O)cc(OC)c1OC (stereo not drawn)	1	.	-16	-7	4	3
Cc1ccccc1-c1nc(-c2cccnc2)no1	-1	.	-21	48*	9	.
COc1ccc(-c2nc(-c3cccnc3)no2)cc1	.	.	.	53*	.	.
COc1cc(OC)cc(-c2nc(-c3ccccc3)no2)c1	5	45	-11	-2	48*	-3
c1ccc(-c2ccc(-c3nc(-c4cccnc4)no3)cc2)cc1	-6	48	-24	?	4	6
CCOc1ccc(-c2nc(-c3cccnc3)no2)cc1	-2	13	-55	47*	-3	2
COCCNC(=O)C[C@@H]1C[C@H]2c3cc(NC(=O)NC4CCCC4)ccc3O[C@H]2[C@@H](CO)O1	6[16.7 µM]	.	-1	.	5	4
C/C=C/c1ccc([C@H]2[C@H](CO)N(C(C)=O)[C@H]2CNC(=O)CC2CC2)cc1	7[16.7 µM]	.	-4	.	2	-2
O=C(O)c1ccc(-c2noc(-c3ccccc3F)n2)cc1	.	5	-72	16	-15	-3
Cc1ccccc1-c1nc(Cc2ccccc2)no1	-2	118*	-19	17	60*	-1
Cc1ccc(-c2noc(-c3ccccc3F)n2)cc1	6	12	.	57*	-15	.
CCCCOc1ccc(-c2nc(-c3cccnc3)no2)cc1	-4	99*	-11	.	7	6
C[C@H](CO)N1C[C@H](C)[C@H](CN(C)Cc2ccccn2)Oc2ncc(-c3ccc(F)cc3)cc2C1=O	0[16.7 µM]	.	-20	.	10	-1
O=C(CCSc1ccc(Cl)cc1)N1CCN(c2ncccn2)CC1	-1	37	0	.	42*	3
O=C(CCSc1ccc(Cl)cc1)N1CCCCCC1	10	74	-2	.	86*	8
COc1ccccc1-c1cnc2c(c1)C(=O)N([C@H](C)CO)C[C@@H](C)[C@@H](CN(C)Cc1cncnc1)O2	52[16.7 µM]	.	-9	.	-5	-3

2 compounds drawn at random from those above, as already listed:
SMILES	miR-122 sensor	MITF act	Yeast UUG start	Wnt bcat act	esBAF inh	PglD DTNB
O=C(O)c1ccc(-c2noc(-c3ccccc3F)n2)cc1	.	5	-72	16	-15	-3
COc1ccc(-c2nc(-c3cccnc3)no2)cc1	.	.	.	53*	.	.
